Data on eleven molecules can be found in PubChem BioAssay AID1671188 (National Center for Advancing Translational Sciences (NCATS), 2021).

By UniProt entry, the sequences of proteins in these tests, tags left out.
UniProt Q8TD30, whole entry: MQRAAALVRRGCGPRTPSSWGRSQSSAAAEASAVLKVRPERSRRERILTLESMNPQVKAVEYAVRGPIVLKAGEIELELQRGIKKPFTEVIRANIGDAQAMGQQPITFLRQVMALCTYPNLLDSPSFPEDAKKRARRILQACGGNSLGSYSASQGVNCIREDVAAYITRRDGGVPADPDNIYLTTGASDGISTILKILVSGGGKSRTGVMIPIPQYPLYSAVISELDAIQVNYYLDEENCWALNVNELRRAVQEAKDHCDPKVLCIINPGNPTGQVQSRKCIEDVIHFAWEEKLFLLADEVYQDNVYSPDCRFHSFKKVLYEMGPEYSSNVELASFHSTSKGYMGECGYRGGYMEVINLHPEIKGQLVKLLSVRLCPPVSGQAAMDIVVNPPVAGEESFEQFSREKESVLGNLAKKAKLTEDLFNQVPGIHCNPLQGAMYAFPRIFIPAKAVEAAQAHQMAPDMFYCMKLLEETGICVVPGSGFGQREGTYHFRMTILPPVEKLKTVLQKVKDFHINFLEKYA

This is a selection; strong and weak results do not stand in their true shares. Inconclusive results are not listed. Some salts or complexes appear as unconnected parts, following the source record. Calls of active or inactive are those of the source. Calls follow the shape of the dose curve; as a rule, active = well fitted inhibition curve with a large enough effect; inconclusive = small, poorly fitted or top-dose-only effect; inactive = flat fitted curve, though single readings scatter.
% is scaled to controls: 0 for no effect and ±100 for the full control effect; potency is read from the fitted curve at half-maximal effect.

For this experiment, the target named is Alanine aminotransferase 2 (Homo sapiens) (UniProt Q8TD30). Nature of the experiment: Primary qHTS assay for inhibitors of Glutamate pyruvate transaminase 2 (GPT2). Also: nearly all actives have a fitted effect of over 60% in size. The following applies: Recombinant GPT2, coupled pyruvate oxidase/HRP Amplex Red fluorescence; series mostly up to 88.5 µM; activity change, negative = inhibition: at the top concentration. As to the method:
Assay Provider: Zhenghe John Wang Ph.D.
Case Western Reserve University, Cleveland OH
Glutamate pyruvate transaminase 2 (GPT2) catalyzes the reversible transamination of glutamate and pyruvate to provide a-ketoglutarate and alanine. We have optimized an assay for GPT2 enzymatic activity that couples pyruvate formation to detection of fluorescence using an established pyruvate oxidase/horseradish peroxidase / Amplex Red system.
Screening conditions were 250uM a-KG, 2mM L-alanine, and 10ng/uL GPT2 in […] of solution; 10uL of Amplex reaction mix (outlined below) were added so that final concentrations of Amplex reagents in 50uL were 0.2mM ThPP, 0.2U/mL PO and HRP, and 50uM Amplex.
NOTE: The volume of GPT2 in the system depends on the activity of it. The activity is different every batch. You need to test the activity before the assay. For full plate assay with automation, plate 20uL of GPT2 buffer to pin into, then add 10uL of GPT2 dilution followed immediately by 10uL of substrate dilution. 2 Columns of the plate were devoted to GPT2 buffer ([…] PH7.5, 0.0001% Tween) + 50uM AOA (known GPT2 inhibitor) to serve as a positive control. Complete the assay as normal. Amplex-red buffer: […] PH7.5, 1 mM EDTA, 1 mM MgCl2.
1. Combine a-KG and L-alanine at desired concentrations and incubate for at least 10 minutes at 37C. Stocks of L-alanine and a-KG are diluted in distilled water. However, the stocks were diluted in GPT2 buffer for the assay.
2. Prepare GPT2 dilution at the desired concentration in GPT2 buffer.
3. Plate 40uL of GPT2 dilution with 40uL of substrate dilution and let incubate for 30 minutes at room temperature.
4. Add 20uL of Amplex reaction mix prepared as follows: 1.5uL 200U/mL Horseradish Peroxidase, 200mM Thiamine Pyrophosphate, 200U/mL Pyruvate Oxidase; 7.5uL 10mM Amplex Red; 288uL Amplex Buffer.
5. Incubate for 30 minutes at room temperature in the dark, then image using AM_Amplex_Fluorescence on plate reader nearest the window.
For the molecule `OCCSCCO`, the “activity change, negative = inhibition” value is inactive: 0.574% [at 57.7 µM].

`CNCc1cccc(C)n1.OOC#COO`: the “outcome” value was “inactive [at 88.5 µM]”.

With `CC1=C2[N-][C@@](C)([C@@H]3N=C(C(C)=C4N=C(C=C5N=C1[C@@](C)(CC(N)=O)[C@H]5CCC(N)=O)C(C)(C)[C@H]4CCC(N)=O)[C@](C)(CCC(=O)NC[C@@H](C)OP(=O)([O-])O[C@H]1[C@@H](O)[C@@H](n4cnc5cc(C)c(C)cc54)O[C@H]1CO)[C@H]3CC(N)=O)[C@@](C)(CC(N)=O)[C@@H]2CCC(N)=O.[C-]#N.[Co+3]`, the Potency was active: 1.33 µM.

For the molecule `Cc1cccc([N+](=O)[O-])c1[N+](=O)[O-]`, the “activity change, negative = inhibition” value was inactive: 1.49%.

Consider `CN(C(=O)Cc1ccccc1)[C@H]1CC[C@@]2(CCCO2)C[C@@H]1N1CCCC1`, for which the result was inactive.

Consider `CCn1c(=O)n([C@@H]2CCN(CC3CCCCCCC3)C[C@@H]2CO)c2ccccc21`, for which the result was inactive.

As to `O=[N+]([O-])c1cccc([N+](=O)[O-])c1`, the “activity change, negative = inhibition” value is inactive: 3.8%.

With `NC(=O)Nc1ccc([As](=O)(O)O)cc1`, the outcome was inactive.

`CCn1c(=O)n([C@@H]2CCN(CC3CCCCCCC3)C[C@H]2CO)c2ccccc21`: the outcome was inactive.

As for `CN(C(=O)Cc1ccc(Cl)c(Cl)c1)[C@@H]1CC[C@]2(CCCO2)C[C@H]1N1CCCC1`, the outcome was inactive.

On to `C/C1=C2N=C(/C=C3N=C(/C(C)=C4\N=C(C(CC(N)=O)C4(C)CCC(=O)NCC(C)OP(=O)([O-])OC4C(CO)OC(n5cnc6cc(C)c(C)cc65)C4O)C4(C)N=C1C(CCC(N)=O)C4(C)CC(N)=O)C(CCC(N)=O)C\3(C)C)C(CCC(N)=O)C/2(C)CC(N)=O.[C-]#N.[Co]` (stereo unspecified), for which the Potency was active: 1 µM.
